In paper PMC9410265, “Citrate Regulates the Saccharomyces cerevisiae Mitochondrial GDP/GTP Carrier (Ggc1p) by Triggering Unidirectional Transport of GTP” (Journal of Fungi, 2022):

Biological target: T1, Ggc1p (yeast mitochondrial GDP/GTP carrier) (Saccharomyces cerevisiae, UniProt P38988)
T1 sequence (P38988 1-300): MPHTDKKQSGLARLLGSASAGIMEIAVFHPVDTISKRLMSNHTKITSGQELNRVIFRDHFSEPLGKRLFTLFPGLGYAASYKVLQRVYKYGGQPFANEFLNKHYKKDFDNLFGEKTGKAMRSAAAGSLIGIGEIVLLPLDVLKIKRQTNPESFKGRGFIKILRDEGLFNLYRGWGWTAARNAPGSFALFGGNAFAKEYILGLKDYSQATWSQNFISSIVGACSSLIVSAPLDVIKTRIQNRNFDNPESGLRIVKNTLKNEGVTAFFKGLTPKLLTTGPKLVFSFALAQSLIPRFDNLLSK
Parameters: gene GGC1
Conditions: GTP/GTP exchange and citrate-induced uptake; concentration not given; thiol reagent added 2 min before [8-3H]GTP (1 μM); pH 7.0, 25 °C

`COC([CH2][Hg+])CNC(=O)c1ccccc1OCC(=O)O` (stereo not shown) [mersalyl] was tested, and the “% inhibition” value was “only partially inhibited by sulfhydryl reagents such as mercury chloride and mersalyl”.
